{"source": "paper PMC2871040", "target": "wild-type SEDLIN (HA-SEDLIN or cMyc-SEDLIN, expressed in COS7 cells) (human) (UniProt P0DI81)", "assay": "native gel or EMSA; nuclear and cytoplasmic fractions (40 ug total protein) of COS7 cells transfected with cMyc-SEDLIN; 12% continuous non-denaturing PAGE in 1x Tris/Glycine buffer; Western blot with anti-cMyc", "data": [{"substance": "wild-type SEDLIN (HA-SEDLIN or cMyc-SEDLIN, expressed in COS7 cells) (from UniProt P0DI81 1-140) (natural protein)", "values": [{"measurement": "stoichiometry N", "result": 2}]}]}
